Assay: Pharmacokinetic profile after intravenous administration to rats
Format: in vivo
Conditions: rat, Sprague Dawley rats, plasma, sampling up to 2 hours, FIG. 2
Description: To determine the pharmacokinetic profile of GV2001 prepared in Example 1, plasma was collected from rats administered with GV2001. The collected plasma was pretreated by protein precipitation using nine times the volume of methanol containing 0.1% formic acid, followed by centrifugation at 16,100 g for 10 minutes.
GV2001 and GV1001 were administered intravenously (IV) to three Sprague Dawley rats in each group. Blood samples were collected at 0.033, 0.083, 0.17, 0.25, 0.5, 1, and 2 hours after administration. The collected blood samples were centrifuged to separate plasma, pretreated, and analyzed using LC-MS. Pharmacokinetic parameters were calculated using the non-compartmental analysis model of the Phoenix WinNonlin (Pharsight, ver. 6.4, USA) program.

AUC(0-t): 24 ng·h/mL
SMILES: CC[C@H](C)[C@H](NC(=O)[C@H](Cc1ccccc1)NC(=O)[C@H](CCCNC(=N)N)NC(=O)[C@H](CC(C)C)NC(=O)[C@H](CCCNC(=N)N)NC(=O)[C@H](CO)NC(=O)[C@@H](NC(=O)[C@H](CC(C)C)NC(=O)[C@H](CC(C)C)NC(=O)[C@H](C)NC(=O)[C@@H]1CCCN1C(=O)[C@H](CCCNC(=N)N)NC(=O)[C@H](C)NC(=O)[C@@H](N)CCC(=O)O)[C@@H](C)O)C(=O)N1CCC[C@H]1C(=O)N[C@@H](CCCCN)C(=O)O [GV1001, reference compound]

From patent EP4733310A1, “NOVEL PEPTIDE AND USE THEREOF” (Gemvax & Kael Co., Ltd., priority 2023, dated 2024)
